Results published in patent US6258825A, “2-oxoimidazole derivatives” (dated 2001).
pIC50: −log10 of the molar value.

Columns and labels:
[1] = biological target: T1, nociceptin receptor ORL1 (Homo sapiens, UniProt P41146); test: Nociceptin receptor binding inhibition assay; settings: read-out: IC50 value (nociceptin receptor binding inhibition effect); [125I]Tyr14-Nociceptin 50 pM, CHO/ORL1 membrane 11 μg, SPA, pH 7.4, 37° C., 60 minutes
[2] = biological target: T1, nociceptin receptor ORL1; test: Antagonism against nociceptin-elicited G protein activation; settings: read-out: IC50 Value (antagonism against nociceptin-elicited G protein activation); GTPγ[35S] binding 200 pM, 50 nM nociceptin, CHO/ORL1 membrane, SPA, pH 7.4, 25° C., 150 minutes

| Structure (SMILES) | pIC50 [1] | pIC50 [2] |
| --- | --- | --- |
| CCn1c(=O)n(C2CCN(CC3CCCCCCC3)CC2CNS(N)(=O)=O)c2ccccc21 (single isomer, unassigned) | 8.64 | 7.92 |
| CCn1c(=O)n([C@H]2CCN(CC3CCCCCCC3)C[C@@H]2CO)c2ccccc21 (relative stereo) | 8.74 | 7.74 |
| NCCn1c(=O)n([C@H]2CCN(CC3CCCCCCC3)C[C@@H]2CO)c2ccccc21 (relative stereo) | 8.52 | 7.57 |
| O=c1n(CC(F)F)c2ccccc2n1[C@@H]1CCN(CC2CCCCCCC2)C[C@H]1CO (racemic) | 8.72 | 8.24 |
